Assay results published in patent US7803786B2, “Pharmaceutical co-crystal compositions and related methods of use” (Transform Pharmaceuticals, Inc., priority 2004, dated 2010).

Settings: multiple experiments including dry grinding and wet grinding with several different solvents

polymorphs of the co-crystal observed: only one polymorph
Substance: Piracetam:Gentisic acid Co-crystal
